The source of these data is patent publication US11931463B2, “All-in-one fixed-dose combination for treating Helicobacter pylori infection” (RedHill Biopharma Ltd., priority 2013, dated 2024).

For series [1] the following is noted: in vivo, po, 150 mg; cited from earlier work.
The conditions of series [2]: human, in vivo, 50 mg.

25-O-desacetylrifabutin: the Cmax (as a rule, the peak of the concentration-time curve) in series [1] is 27 ng/mL. For the same substance, the “expected Cmax” value in series [2] was roughly 9 ng/mL.
